Antibody variant affinities, Ab-14 light chain, assay B

Target: peptide PDVDLGDISGINAS, taken from heptad repeat 2 (HR2) of SARS-CoV-2 spike.

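The starting antibody came from a phage panning campaign against this peptide. Designed CDR sequences, proposed from the first random library and measured here. Their group label is 14L_GP_HC (GP: Gaussian process model; HC: hill climbing; a sequence that several methods proposed may carry one label only). AlphaSeq pools MATa yeast showing the antibodies with MATalpha yeast showing the peptide. Mating (16 h, 30 °C) was followed by selection of diploids and sequencing of their barcodes. A regression on co-assayed BCL2-family reference pairs converts the normalised counts of each replicate to an apparent Kd. Mating was done six times.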

Parent: Ab-14, a human scFv built as VH, a 15-residue (Gly4Ser)3 linker, VL. Only the CDRs of the light chain vary.
VH: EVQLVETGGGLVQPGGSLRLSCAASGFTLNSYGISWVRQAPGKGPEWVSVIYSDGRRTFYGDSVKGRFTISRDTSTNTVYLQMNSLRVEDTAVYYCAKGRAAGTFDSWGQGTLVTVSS
VL: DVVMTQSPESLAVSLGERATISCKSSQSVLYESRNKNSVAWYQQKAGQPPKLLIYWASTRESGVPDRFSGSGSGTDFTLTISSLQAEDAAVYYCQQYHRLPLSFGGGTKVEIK

The parent's light chain CDRs are KSSQSVLYESRNKNSVA, WASTRES, QQYHRLPLS; each variant's own CDRs replace them letter for letter. Scale: log10 of Kd in nM, estimated from mating counts; low values are strong binders. The mean shown is taken over the replicates in which the pair was detected. The range of this assay differs from that of the first round, and the authors advise against merging the two. The authors' rule: three or more of the six replicates give a measured affinity, fewer mean a poor binder. Empty control strains, which show no peptide, gave a signal in 4% of pairings with all light chain designs; the median was 2.64 and 95% of these signals were weaker than 1.59. No background was subtracted. Also given: how often the same scFv was detected with the empty control strains, with their mean in brackets.

CDR-L1 | CDR-L2 | CDR-L3 | log10 Kd (nM) by replicate | mean, log10 nM | empty controls
KMLQSVLYESRNKNSVA | HASTRED | QQYHQLPLS | 0.01 -0.20 -0.31 -0.02 -0.20 -0.09 | -0.14 | 1/18 (1.72)
KLRQSINYESRNKNSVA | NASTRES | QQYHRLPLS | -0.16 0.06 -0.13 -0.39 -0.31 -0.12 | -0.18 | 1/18 (2.59)
KQSQSVLYESRNKNSVA | DGSTRES | QQYHRLPLD | -0.04 -0.07 -0.09 -0.37 -0.04 0.00 | -0.10 | 2/18 (2.64)
KLSQKVLYEHRVKNSVA | NASTRES | QQYHRLPLS | 1.55 1.89 1.39 0.88 1.22 1.29 | 1.37 | 2/18 (2.57)
KESQSWLYESRNKNSVA | NASTRES | QQYHRLPLS | 0.90 0.45 0.38 0.62 0.49 0.65 | 0.58 | 1/18 (3.26)
KSGQGDLYESRNKNHVA | GASTRES | QQYHRLPLS | 0.04 -0.28 -0.15 -0.31 -0.29 -0.06 | -0.18 | 0/18
IAVQSWLYESRNKNSVA | GASTRES | QQYHRLPLS | 0.62 0.80 0.27 0.39 0.57 0.34 | 0.50 | 2/18 (3.46)
KLMQSVLYESRNKNSVA | HASTRED | QQYHRLPLS | 0.22 0.21 0.48 0.06 0.15 0.32 | 0.24 | 0/18
KLSQQWLYESRNKNSVA | SASTRES | QQYHRLPLS | -0.18 -0.27 -0.31 -0.27 -0.32 -0.11 | -0.25 | 1/18 (1.98)
LSSISYYYESPNKNSVA | EASTRES | QQYHRLPLS | 0.58 0.46 0.75 0.34 0.69 0.58 | 0.57 | 1/18 (2.75)
KVQQSVLYESRNKNNVA | HASTRED | QQYARLPLS | -0.23 -0.42 -0.39 -0.46 -0.45 -0.34 | -0.38 | 1/18 (2.71)
KFSQWVLYESGTKNSVA | NASTRES | QQYHRLPLS | 0.19 0.36 0.17 0.03 0.12 0.27 | 0.19 | 1/18 (2.11)
KSLQSHLYESRNKNSVA | HASTRED | QQYHQLPLS | 0.62 0.24 0.29 1.01 0.30 0.80 | 0.54 | 0/18
KVSISYLLESRNKNSVA | EASTRED | QQYHRLPLS | -0.04 -0.16 -0.31 -0.37 -0.29 -0.14 | -0.22 | 1/18 (1.76)
KFSQSVLYESRTKNQVA | NASTRES | QQYHRLPLS | -0.19 0.24 -0.29 0.20 0.24 -0.04 | 0.03 | 1/18 (2.03)
HSSPSVEYESRNKNSVA | NASNRES | QQYHRLPLS | 1.09 0.74 1.00 0.52 0.85 1.23 | 0.90 | 0/18
KLSWSVLYESGNKNSVA | HASTRED | QQYHRLPLS | 0.18 0.00 -0.11 -0.33 -0.03 0.44 | 0.03 | 1/18 (2.92)
HQSPSVLYESRNKNSVA | NGSTREV | QQYHRLPLS | -0.19 -0.11 -0.27 -0.35 -0.17 -0.15 | -0.20 | 2/18 (3.17)
KMSQSFLYESRNVNSVA | GASTRES | QQYHRLPLS | -0.08 -0.21 -0.08 -0.28 -0.21 0.02 | -0.14 | 1/18 (1.76)
KISWSVLFESRNKNSVA | DASTRSS | QQYHRLPLS | 0.07 -0.12 -0.08 -0.21 -0.04 -0.02 | -0.07 | 2/18 (2.48)
HFSPSVLYESRNGNSVA | NASTRES | QQYHRLPLS | 0.02 -0.05 -0.31 -0.30 -0.35 -0.16 | -0.19 | 3/18 (2.93)
KSSCSYLYESRNKNSVA | EASTRES | QQYHRLPLM | 0.12 0.10 -0.03 -0.26 -0.08 -0.06 | -0.04 | 3/18 (2.97)
KSSKSVLFESRNKNSVA | EASTRES | QQYHRLPLS | 1.53 1.41 1.23 1.25 1.40 1.35 | 1.36 | 5/18 (3.55)
SLMQSVLYESRNKNSVA | HASLREE | QQYHRLPLS | 0.02 -0.10 -0.01 -0.04 -0.09 -0.02 | -0.04 | 3/18 (3.41)
KCSQSVLYESRNKNSVA | MASTRES | QQYHRLPLS | 0.74 0.74 0.52 0.62 0.57 0.63 | 0.64 | 2/18 (2.50)
KFGQGVLYESRNKNSVA | GASQRES | QQYHRLPLS | -0.01 -0.15 -0.01 -0.30 0.00 -0.01 | -0.08 | 2/18 (2.75)
KESQSWLYESRNKNNVA | GASTRES | QQYHRLPLS | 0.24 0.15 0.15 0.05 0.23 0.41 | 0.21 | 2/18 (2.46)
KSSQSWLYESRNKNSVA | EASAREV | QQYHRLPLS | 0.52 0.74 0.51 0.16 0.23 0.32 | 0.41 | 1/18 (2.89)
KLLQSVLYEGRNKNSVA | HASTRED | QQYHRLPLS | 0.22 0.14 0.10 0.12 0.02 0.34 | 0.16 | 1/18 (2.96)
KVSISYLGESRNKNSVA | EASTRES | QQYHRLPLS | 0.22 -0.14 -0.34 -0.20 -0.03 -0.03 | -0.09 | 1/18 (2.78)
DASQSWLYESRNKNSVA | GASTRES | QQYHRLPLS | -0.10 -0.29 -0.40 -0.26 -0.46 -0.19 | -0.28 | 0/18
KSSQSVDNESRWKNSVA | DASTRES | QQYHRLPLS | 1.24 -0.35 0.74 -0.26 -0.05 0.81 | 0.35 | 1/18 (0.87)
KSSCSYLYESENKNSVA | EASQRES | QQYHRLPLS | 0.39 0.51 0.28 0.62 0.15 0.17 | 0.35 | 1/18 (1.54)
KSSGSDLYESRNKNSVA | EASTREQ | QQYHRLPLS | -0.23 -0.36 -0.17 -0.47 -0.09 -0.17 | -0.25 | 0/18
KVSPSYLLESRNKNSVA | EASTRES | QQYHRLPLS | -0.58 -0.26 -0.65 -0.22 -0.62 -0.12 | -0.41 | 0/18
KLSLSVLFESRNKNSVA | NASTRES | QQYHRLPLS | -0.08 -0.38 -0.07 -0.35 -0.28 -0.10 | -0.21 | 0/18
KSLQSWGYESRNKNSVA | HASTREQ | QQYHRLPLS | 1.20 0.68 0.98 0.67 0.91 0.76 | 0.87 | 0/18

Data: MIT Lincoln Laboratory AlphaSeq set, Li et al. 2023, doi:10.1038/s41467-023-39022-2, as distributed in FLAb.